SMILES strings stand for the structures.

We go through 1 molecule from patent US8372598B2 (priority 2010, dated 2013).

One assay has as its system Co-2164. Description: Survival in mutagens. In kind it is cell-based, Clostridium. Particulars: 50 μg/ml MNNG.
Another assay has as its system Co-5673. Description: Survival in mutagens. In kind it is cell-based, Clostridium. To be noted: 50 μg/ml MNNG, 40 minutes, 32° C.

With `CN(N=O)C(=N)N[N+](=O)[O-]`, in the assay on Co-2164 (40 minutes, 32° C., Co-2164), the “Survival (% of control)” value was found to be 84% and the “Survival (count)” value is 3.5 × 10^7. Besides, the “higher survival rate in comparison to Co-5673” value in the assay with Co-2164 (Co-2164 versus Co-5673) turned out to be 80%. In the assay on Co-5673, the “Survival (% of control)” value is 4% and the “Survival (count)” value is recorded as 3.7 × 10^6.
